Biological target: INTS7 (recombinant, in the reconstituted DSS1–INTAC complex) (human, UniProt Q9NVH2)
Assay: cryo-EM structure

B1: DSS1 in the reconstituted DSS1–INTAC complex (pLVX-DSS1-WT co-expressed in Expi293F) (natural protein)
chain: MSEKKQPVDLGLLEEDDEFEEFPAEDWAGLDEDEDAHVWEDNWDDDNVEDDFSNQLRAELEKHGYKMETS
binding result: binds

— publication doi:10.1101/2024.02.25.581915 (bioRxiv, 2024)
